In US20260072036A1, “BICYCLONONYNE REAGENTS FOR CELL IMAGING” (The General Hospital Corporation, priority 2022, published 2026):

Assays:
[1] = Quenching kinetics of FAST-antibodies with BHQ3-Tz
Procedure: (§1) CP or BCN FAST-labeled antibodies were stored in PBS at 4° C. at concentrations of 5-15 μM after labeling. Disposable polystyrene cuvettes were blocked with 2 mL 1% BSA in PBS which was then removed and replaced with a 0.01% BSA solution in PBS to reduce nonspecific adsorption of the antibodies. Time-based fluorescence acquisitions at the appropriate dye-specific wavelengths were initiated, and the baseline emission of the buffer solutions measured. FAST-labeled antibodies were diluted into the blocked cuvette to a concentration of 4-10 nM and after measuring initial fluorescence, 10-20 μL of either Tz-BHQ3 or Azide-BHQ3 were added via the instrument's sample addition port and data acquisition continued until the quenching reaction was complete.
(§2) Data were analyzed in GraphPad Prism 9 (Graphpad Software). For FAST-labeled antibodies, curves were fitted to a double exponential (two phase) decay with the time of BHQ3 addition set to t=0 for fitting purposes.
The unaccelerated reaction rate of BCN-PEG2-amine with benzylamino-tetrazine was measured on a stopped flow spectrophotometer as previously published (Carlson, J. C. T., et al., Unraveling Tetrazine-Triggered Bioorthogonal Elimination Enables Chemical Tools for Ultrafast Release and Universal Cleavage. J Am Chem Soc 140, 3603-3612 (2018)). Data were analyzed in GraphPad Prism 9 (Graphpad Software) and second order rate constants were calculated from the second order rate equation (Kinetics and Mechanism) using the nonlinear fits of the absorbance vs. time curves.

[2] = Quenching kinetics of FAST-antibodies with Azide-BHQ3
Procedure: as §1, §2

For “cetuximab-CP-AF647: cetuximab labeled with CP-AF647 FAST probe [reference compound]”, the “expected time for complete reaction at the experimental concentration, predicted vs accelerated” value ([1]; BHQ3-Tz) was “from months to hours” and the “acceleration of the quenching reaction vs predicted kinetics” value ([1]; after addition of BHQ3-Tz) was 500 ×.

In the case of “cetuximab-BCN-AF647: cetuximab labeled with BCN-AF647 FAST probe”, the “reaction rate compared to predicted values” ([1]; BHQ3-Tz) is reported as “dramatically enhanced reaction rate”, the “acceleration of the quenching reaction vs predicted kinetics for the Tz reaction alone” value ([1]; after addition of BHQ3-Tz) is reported as “about 1400 fold” and the “effective second order rate constant” value ([1]; after addition of BHQ3-Tz) is reported as 4.5e+06 M⁻¹ s⁻¹. For the same substance, the “reaction timeframe, predicted vs accelerated” value ([2]; 10 μM azide-BHQ3, routine imaging conditions) was “from one week to two minutes”, the “effective rate constant for the slow component” value ([2]; Azide-BHQ3, biphasic process) was 6700 M⁻¹ s⁻¹ and the “acceleration vs underlying azide-alkyne reaction kinetics” value ([2]; azide-BHQ3) was > 5000 fold. For the same substance, the “reaction rate compared to predicted values” ([2]; azide-BHQ3) was “dramatically enhanced reaction rate”.
